pIC50: −log10 of the molar value.
Assays:
Assay type in all cases: biochemical
c-Kit = c-Kit (Homo sapiens, UniProt P10721); assay: Inhibition of c-Kit (FAM-labeled peptide assay, IC50)
c-Abl1 = c-Abl1 (Homo sapiens, UniProt P00519); assay: Inhibition of Abelson protein kinase c-Abl1 (FAM-labeled peptide assay, IC50)
c-Abl2 = c-Abl2 (Homo sapiens, UniProt P42684); assay: Inhibition of Abelson protein kinase c-Abl2 (FAM-labeled peptide assay, IC50)

By UniProt entry, the sequences of proteins in these tests, tags left out. Residues count along the entry.
UniProt P10721, 26-976: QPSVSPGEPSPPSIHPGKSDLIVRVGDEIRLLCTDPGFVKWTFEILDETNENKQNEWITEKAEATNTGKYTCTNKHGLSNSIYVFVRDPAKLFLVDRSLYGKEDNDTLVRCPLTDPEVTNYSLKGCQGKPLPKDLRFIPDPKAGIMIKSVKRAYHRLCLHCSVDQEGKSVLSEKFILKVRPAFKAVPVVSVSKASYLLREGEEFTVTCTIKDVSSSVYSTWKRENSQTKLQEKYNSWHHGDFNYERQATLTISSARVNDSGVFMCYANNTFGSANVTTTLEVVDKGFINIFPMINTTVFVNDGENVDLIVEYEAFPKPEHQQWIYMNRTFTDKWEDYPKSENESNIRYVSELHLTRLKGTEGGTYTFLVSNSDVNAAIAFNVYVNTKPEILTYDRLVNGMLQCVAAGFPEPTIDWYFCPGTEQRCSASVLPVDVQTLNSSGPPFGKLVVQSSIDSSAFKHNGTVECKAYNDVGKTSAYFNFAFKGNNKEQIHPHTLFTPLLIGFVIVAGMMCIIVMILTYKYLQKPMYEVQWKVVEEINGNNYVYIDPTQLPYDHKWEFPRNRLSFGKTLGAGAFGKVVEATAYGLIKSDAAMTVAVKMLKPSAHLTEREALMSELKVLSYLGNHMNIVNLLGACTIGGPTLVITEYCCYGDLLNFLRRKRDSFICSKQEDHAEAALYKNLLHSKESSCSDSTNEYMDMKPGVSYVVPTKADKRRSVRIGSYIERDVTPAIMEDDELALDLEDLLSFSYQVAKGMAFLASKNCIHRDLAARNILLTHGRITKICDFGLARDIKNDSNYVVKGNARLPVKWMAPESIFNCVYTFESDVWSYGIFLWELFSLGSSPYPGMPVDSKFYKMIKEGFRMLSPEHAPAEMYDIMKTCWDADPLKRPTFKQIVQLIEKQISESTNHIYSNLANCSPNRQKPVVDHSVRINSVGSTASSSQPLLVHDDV
UniProt P00519, whole entry: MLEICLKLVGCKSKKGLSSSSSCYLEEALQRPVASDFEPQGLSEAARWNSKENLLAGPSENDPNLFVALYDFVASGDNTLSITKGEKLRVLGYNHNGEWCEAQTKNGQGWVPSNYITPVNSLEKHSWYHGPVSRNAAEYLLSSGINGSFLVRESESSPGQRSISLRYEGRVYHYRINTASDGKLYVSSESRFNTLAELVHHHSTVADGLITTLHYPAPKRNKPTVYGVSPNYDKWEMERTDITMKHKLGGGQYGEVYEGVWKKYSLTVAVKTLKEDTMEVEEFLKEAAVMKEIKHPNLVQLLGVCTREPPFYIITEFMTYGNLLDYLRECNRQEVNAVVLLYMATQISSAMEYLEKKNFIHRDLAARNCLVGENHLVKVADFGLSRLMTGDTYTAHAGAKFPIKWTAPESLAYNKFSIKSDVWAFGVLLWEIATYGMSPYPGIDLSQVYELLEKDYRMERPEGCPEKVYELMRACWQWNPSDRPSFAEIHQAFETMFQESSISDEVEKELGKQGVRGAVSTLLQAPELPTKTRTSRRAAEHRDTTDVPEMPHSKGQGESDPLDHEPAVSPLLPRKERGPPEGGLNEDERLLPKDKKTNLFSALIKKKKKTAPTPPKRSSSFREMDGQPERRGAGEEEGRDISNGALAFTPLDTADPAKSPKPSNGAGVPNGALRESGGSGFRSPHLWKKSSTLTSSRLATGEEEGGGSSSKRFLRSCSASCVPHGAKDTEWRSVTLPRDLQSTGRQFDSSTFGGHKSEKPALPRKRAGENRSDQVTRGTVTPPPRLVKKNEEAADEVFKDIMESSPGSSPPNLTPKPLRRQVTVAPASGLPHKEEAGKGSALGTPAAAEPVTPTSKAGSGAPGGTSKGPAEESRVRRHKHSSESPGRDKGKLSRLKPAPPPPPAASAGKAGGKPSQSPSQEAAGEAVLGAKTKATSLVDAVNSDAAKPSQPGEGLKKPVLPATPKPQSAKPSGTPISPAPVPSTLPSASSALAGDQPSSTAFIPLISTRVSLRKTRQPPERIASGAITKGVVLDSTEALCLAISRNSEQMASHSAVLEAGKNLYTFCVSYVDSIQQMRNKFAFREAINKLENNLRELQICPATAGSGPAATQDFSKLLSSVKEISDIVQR
UniProt P42684, whole entry: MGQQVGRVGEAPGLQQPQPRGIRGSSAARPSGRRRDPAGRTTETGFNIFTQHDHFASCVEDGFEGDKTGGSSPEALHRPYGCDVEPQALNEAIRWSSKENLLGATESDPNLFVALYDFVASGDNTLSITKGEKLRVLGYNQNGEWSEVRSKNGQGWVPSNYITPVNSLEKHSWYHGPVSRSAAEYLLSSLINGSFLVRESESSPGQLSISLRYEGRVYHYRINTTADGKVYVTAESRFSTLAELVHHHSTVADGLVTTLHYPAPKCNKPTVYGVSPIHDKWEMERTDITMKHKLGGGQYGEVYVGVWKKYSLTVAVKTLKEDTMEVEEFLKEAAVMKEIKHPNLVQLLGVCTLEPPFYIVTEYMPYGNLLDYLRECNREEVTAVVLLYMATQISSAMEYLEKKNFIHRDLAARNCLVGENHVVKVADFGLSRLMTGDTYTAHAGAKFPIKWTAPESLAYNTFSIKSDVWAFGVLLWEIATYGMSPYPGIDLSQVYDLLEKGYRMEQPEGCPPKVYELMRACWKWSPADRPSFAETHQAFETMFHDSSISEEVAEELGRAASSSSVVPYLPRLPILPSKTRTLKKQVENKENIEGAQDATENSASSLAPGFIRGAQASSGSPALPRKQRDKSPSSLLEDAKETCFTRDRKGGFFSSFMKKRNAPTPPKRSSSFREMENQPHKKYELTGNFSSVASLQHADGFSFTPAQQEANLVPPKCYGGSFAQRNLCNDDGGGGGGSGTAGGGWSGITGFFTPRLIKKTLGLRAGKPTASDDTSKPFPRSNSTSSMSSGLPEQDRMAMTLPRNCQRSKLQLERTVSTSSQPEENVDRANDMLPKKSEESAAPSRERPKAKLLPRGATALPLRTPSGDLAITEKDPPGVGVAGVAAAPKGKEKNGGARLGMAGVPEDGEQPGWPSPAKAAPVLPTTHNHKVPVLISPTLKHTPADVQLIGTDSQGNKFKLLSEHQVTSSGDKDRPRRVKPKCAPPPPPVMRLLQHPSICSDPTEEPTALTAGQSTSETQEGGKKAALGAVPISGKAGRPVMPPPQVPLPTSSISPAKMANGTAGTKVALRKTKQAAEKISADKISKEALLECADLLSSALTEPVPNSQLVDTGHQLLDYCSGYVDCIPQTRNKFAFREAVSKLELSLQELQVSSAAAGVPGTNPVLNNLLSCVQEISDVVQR

- pIC50 (c-Kit): 8.14
- pIC50 (c-Abl1): 7.35
- pIC50 (c-Abl2): 7.17
SMILES: Cc1ccc(NC(=O)c2ccc(CN3CCN(C)CC3)cc2)cc1Nc1nccc(-c2cncc(-c3ccn[nH]3)c2)n1 [Compound 107]
